Here are results for one compound from ChEMBL document CHEMBL4627324, “Design and synthesis of novel 2-arylbenzimidazoles as selective mutant isocitrate dehydrogenase 2 R140Q inhibitors” (Bioorg Med Chem Lett, 2020).

The chains behind the UniProt entries cited, without tags or fusion partners. Residues count along the entry.
UniProt P48735, 40-452 R140Q limits assumed: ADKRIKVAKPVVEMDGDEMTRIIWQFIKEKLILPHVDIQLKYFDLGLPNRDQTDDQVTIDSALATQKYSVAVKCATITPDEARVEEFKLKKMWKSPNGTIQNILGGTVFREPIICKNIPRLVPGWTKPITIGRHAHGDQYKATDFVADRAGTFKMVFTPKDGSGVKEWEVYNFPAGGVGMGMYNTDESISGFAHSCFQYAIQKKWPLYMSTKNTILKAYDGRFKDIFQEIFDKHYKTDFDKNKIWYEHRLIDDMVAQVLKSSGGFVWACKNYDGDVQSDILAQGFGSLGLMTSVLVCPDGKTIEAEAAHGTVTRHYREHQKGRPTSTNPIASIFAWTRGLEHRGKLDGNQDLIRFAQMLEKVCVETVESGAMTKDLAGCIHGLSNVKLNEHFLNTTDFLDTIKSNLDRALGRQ
UniProt P48735, 40-452 R172K limits assumed: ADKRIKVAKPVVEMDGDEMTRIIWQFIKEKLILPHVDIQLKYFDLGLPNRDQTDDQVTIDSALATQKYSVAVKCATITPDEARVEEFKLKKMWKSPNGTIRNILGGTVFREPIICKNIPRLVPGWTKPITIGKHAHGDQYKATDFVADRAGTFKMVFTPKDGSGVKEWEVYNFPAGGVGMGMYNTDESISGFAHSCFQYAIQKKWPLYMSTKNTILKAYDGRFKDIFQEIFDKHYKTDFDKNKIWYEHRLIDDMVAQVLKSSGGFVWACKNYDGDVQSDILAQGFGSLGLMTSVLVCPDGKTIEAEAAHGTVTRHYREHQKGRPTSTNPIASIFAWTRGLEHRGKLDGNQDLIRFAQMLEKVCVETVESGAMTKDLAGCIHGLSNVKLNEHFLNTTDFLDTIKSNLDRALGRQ

For assay [1], the target named is Isocitrate dehydrogenase [NADP], mitochondrial (Homo sapiens, UniProt P48735, R140Q). Kind of assay: Inhibition of IDH2 R140Q mutant (unknown origin).
Assay [2] has as its target T1, Isocitrate dehydrogenase [NADP], mitochondrial (Homo sapiens, UniProt P48735).
T1 sequence (P48735 whole entry): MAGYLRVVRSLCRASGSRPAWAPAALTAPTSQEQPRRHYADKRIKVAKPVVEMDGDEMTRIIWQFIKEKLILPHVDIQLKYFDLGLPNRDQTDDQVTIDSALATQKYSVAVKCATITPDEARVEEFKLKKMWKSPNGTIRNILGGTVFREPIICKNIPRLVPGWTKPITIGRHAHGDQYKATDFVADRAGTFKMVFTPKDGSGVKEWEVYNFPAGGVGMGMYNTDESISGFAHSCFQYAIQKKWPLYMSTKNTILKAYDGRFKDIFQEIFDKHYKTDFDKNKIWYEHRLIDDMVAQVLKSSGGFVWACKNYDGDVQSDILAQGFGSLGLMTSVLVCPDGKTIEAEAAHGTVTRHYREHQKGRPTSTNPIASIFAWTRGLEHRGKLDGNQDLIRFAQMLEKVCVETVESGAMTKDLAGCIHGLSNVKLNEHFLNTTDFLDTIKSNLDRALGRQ
In words: Inhibition of wild type IDH2 (unknown origin).

The target in assay [3] is Isocitrate dehydrogenase [NADP], mitochondrial (Homo sapiens, UniProt P48735, R172K). Kind of assay: Inhibition of IDH2 R172K mutant (unknown origin).

One may read the IC50 as the midpoint of a concentration-inhibition curve. Lower therefore signals higher potency. Take `O=C(Nc1cccc(C(F)(F)F)c1)Nc1cc(S(=O)(=O)NC2CC2)ccc1-c1ccsc1`: the IC50 in assay [1] is 0.06 µM; in assay [2], over 100 µM; in assay [3], 10.4 µM.
